The text below walks through data of PubChem BioAssay AID2101 (National Center for Advancing Translational Sciences (NCATS), 2009).

Structures are written as SMILES. Only a part is listed here, and it is no random draw. Some results for these compounds are left out of this collection, so the calls shown say nothing about other tests. Results filed as inconclusive are left out. Activity calls are given as the source filed them. The call rests on the fitted dose curve; in most records, active means well fitted inhibition curve with a large enough effect; inconclusive means small, poorly fitted or top-dose-only effect, or effect the other way, or another doubt; inactive means no such curve, though single readings can be large or run the other way.

In this experiment the target is Lysosomal acid glucosylceramidase (Homo sapiens) (UniProt P04062). The experiment is described as follows: qHTS Assay for Inhibitors and Activators of N370S glucocerebrosidase as a Potential Chaperone Treatment of Gaucher Disease.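 Further: 0% = full enzyme activity and -100% = no enzyme basal.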 As to conditions: N370S GC spleen homogenate, 4MU-glucoside fluorescence; at 59.4 µM (top of the series) unless noted. The source says:
NIH Chemical Genomics Center [NCGC]
NIH Molecular Libraries Probe Production Centers Network [MLPCN]
Assay Submitter (PI): Wei Zheng
Glucocerebrosidase (GC) catalyzes the hydrolysis of beta-glucocerebroside to glucose and ceramide in lysosomes. Mutations in the glucocerebrosidase gene result in Gaucher disease, an autosomal recessive lysosomal storage disorder. Many of the mutations encountered in patients with Gaucher disease are missense alterations that may cause misfolding, decreased stability and/or mistrafficking of this lysosomal protein. […] These inhibitors include iminosugar analogs and three non-iminosugar inhibitors identified from a previous HTS of 62,000 compounds with the wild type recombinant enzyme. However, the enhancement of enzyme activity by the chaperone action of an enzyme inhibitor must be balanced against the direct inhibition of the enzyme. An enzyme activator could also function as a chaperone by binding to the enzyme and helping to correct its misfolding and mistrafficking. While activators for GC have not yet been identified, they may have better therapeutic potential than inhibitors. Therefore the discovery and development of chemical activators may provide a new strategy for the chaperone therapy.
We have optimized a new assay using N370S mutant GC derived from the spleen of a Gaucher patient. […] In addition, the MLPCN compound library has expanded, which increases the chance of finding new and better probes.
NCGC Assay Protocol Summary:
This is a fluorogenic enzyme assay with 4-methylumbelliferyl-beta-D-glucopyranoside as the substrate and N370S glucocerebrosidase from human spleen homogenate as the enzyme preparation. Upon the hydrolysis of this fluorogenic substrate, the resulting product, […] which can be detected by a standard fluorescence plate reader. Data were normalized to the controls for basal activity (without enzyme) and 100% activity (with enzyme). The AC50 values were determined from concentration-response data modeled with the standard Hill equation.
Assay buffer: 50 mM citric acid (titrated with potassium phosphate to pH 5.0), 100 mM potassium chloride, 10 mM sodium chloride, 1 mM magnesium chloride, 0.01% Tween-20.
1536-well assay protocol:
(1) Add 2 ul/well of spleen homogenate (27 ug final)
(2) Add 23 nL compounds in DMSO solution. The final titration was 0.5 nM to 58 uM.
(3) Add 2 ul of substrate (1 mM final)
(4) Incubate at 37C for 40 min.
(5) Add 2 ul stop solution (1M NaOH and 1M Glycine mixture, pH 10)
(6) Detect the assay plate in a ViewLux plate reader (PerkinElmer) with Ex=365 nm and Em=440nm.
Keywords: Glucocerebrosidase, beta-glucosidase, Gaucher Disease, pharmacological chaperone, chaperone therapy, high throughput screening, glucocerebrosidase inhibitor, MLSMR, MLSCN, NIH Roadmap, qHTS and NCGC
As to `CC(C)N1C(=O)CC2(CCN(CCOC(=O)C(O)(c3ccccc3)c3ccccc3)CC2)C1=O`, the activity change, negative = inhibition was inactive: 5.6%.
The figure for `CCN(CC)CC(C)C(C)OC(=O)C(O)(c1ccccc1)c1ccccc1` (stereo not drawn) is inactive: -4.37%.
The same measure for `COc1cc(SC)ccc1C(=O)NCC1(N(C)C)CCCCC1`: inactive: 2.75%; for `Cc1ccc(C(=O)NCC2(N3CCCCC3)CCCCC2)cc1`: inactive: -28.5%.
With `O=C(NCC1(N2CCCCC2)CCCCC1)c1cc([N+](=O)[O-])ccc1Cl`, the activity change, negative = inhibition was inactive: 2.02%.
On to `CN1[C@@H]2CC[C@H]1CC(OC(=O)C(O)(c1ccccc1)c1ccccc1)C2` (stereo partly drawn), for which the activity change, negative = inhibition was inactive: -5.59%.
As for `C=CCN1CCN(CCOC(=O)C(O)(c2ccccc2)c2ccccc2)CC1`, the activity change, negative = inhibition is inactive: 28.7%.
For `O=C(NCC1(N2CCCCC2)CCCCC1)c1cc(F)c(F)cc1Cl`, the activity change, negative = inhibition was inactive: -15.1%.
As for `Cc1cc(C(=O)NCC2(N3CCCCC3)CCCCC2)ccc1[N+](=O)[O-]`, the activity change, negative = inhibition was inactive: -5.25%.
As to `CCN1CCCC(OC(=O)C2(O)c3ccccc3C=Cc3ccccc32)C1` (stereo not drawn), the activity change, negative = inhibition is inactive: -2.14%.
As to `O=C(NCC1(N2CCCCC2)CCCCC1)c1cccc(Br)c1`, the activity change, negative = inhibition is inactive: -17.2%.
Take `COc1ccc(C(=O)NCC2(N(C)C)CCCCC2)cc1`: the activity change, negative = inhibition was inactive: 1.82%.
For the compound `Cc1ccccc1C(=O)NCC1(N2CCCCC2)CCCCC1`, the activity change, negative = inhibition is inactive: -7.03%.
For the compound `CN(C)C1CCCC1OC(=O)C(O)(c1ccccc1)c1ccccc1` (stereo not drawn), the activity change, negative = inhibition was inactive: 4.27%.
On to `CN(C)c1ccc(C(=O)NCC2(N(C)C)CCCCC2)cc1`, for which the activity change, negative = inhibition was inactive: -4.7%.
The figure for `COc1cccc(C(=O)NCC2(N3CCCCC3)CCCCC2)c1` is inactive: 4.35%; for `COc1ccc(Cl)cc1C(=O)NCC1(N(C)C)CCCCC1` it is inactive: -3.64%.
The same measure for `O=C(NCC1(N2CCCCC2)CCCCC1)c1cccc(Cl)c1`: inactive: -4.13%; for `CN(C)C1(CNC(=O)c2ccc(Br)cc2)CCCCC1`: inactive: 0.425%; for `COc1cc(C(=O)NCC2(N(C)C)CCCCC2)c([N+](=O)[O-])cc1OC`: inactive: -10.9%.
Regarding `COc1ccc(Br)c(C(=O)NCC2(N3CCCCC3)CCCCC2)c1`, the activity change, negative = inhibition was inactive: -9.67%.
The figure for `CN(C)c1cccc(C(=O)NCC2(N(C)C)CCCCC2)c1` is inactive: -6.82% [at 2.35 µM]; for `O=C(OC1CN2CCC1CC2)C(CO)(c1ccccc1)c1ccccc1` (stereo not drawn) it is inactive: -7.11%.
